Measurements: article PMC6271856, “Leishmanicidal Evaluation of Tetrahydroprotoberberine and Spirocyclic Erythrina-Alkaloids” (Molecules, 2014)

System: J774 macrophage cell line (J774A.1)
Assay: Macrophages in vitro cytotoxic assay (MTT)
Details: J774A.1 macrophages, 48 h treatment

Structure (SMILES): COC1CC23C(=CC(=O)N2CCc2cc4c(cc23)OCO4)C2OC12 (stereo not shown)
- Macrophage cells (J774) CC50: 47.66 µg/mL
